Source: PubChem BioAssay (NCI)
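Following 48 hours of exposure in 96-well plates, responses at five concentrations were used to interpolate endpoints linearly. GI50 is the concentration that inhibits growth by half.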

Tests used:
Assay in all cases: inhibition of tumour cell growth, NCI panel, 48 h; in the data active = GI50 below about 0.43 µM; inactive = the rest
786-0 renal = system: 786-0 renal
A498 renal = system: A498 renal
A549 NSCLC = system: A549 NSCLC
ACHN renal = system: ACHN renal
BT-549 breast = system: BT-549 breast
CAKI-1 renal = system: CAKI-1 renal
CCRF-CEM leukemia = system: CCRF-CEM leukemia
COLO 205 colon = system: COLO 205 colon
DU-145 prostate = system: DU-145 prostate
EKVX NSCLC = system: EKVX NSCLC
HCC-2998 colon = system: HCC-2998 colon
HCT-116 colon = system: HCT-116 colon
HCT-15 colon = system: HCT-15 colon
HL-60(TB) leukemia = system: HL-60(TB) leukemia
HOP-62 NSCLC = system: HOP-62 NSCLC
HOP-92 NSCLC = system: HOP-92 NSCLC
HS 578T breast = system: HS 578T breast
HT29 colon = system: HT29 colon
IGROV1 ovarian = system: IGROV1 ovarian
K-562 leukemia = system: K-562 leukemia
KM12 colon = system: KM12 colon
LOX IMVI melanoma = system: LOX IMVI melanoma
M14 melanoma = system: M14 melanoma
MALME-3M melanoma = system: MALME-3M melanoma
MCF7 breast = system: MCF7 breast
MDA-MB-231 breast = system: MDA-MB-231 breast
MDA-MB-435 = system: MDA-MB-435
MDA-N = system: MDA-N
MOLT-4 leukemia = system: MOLT-4 leukemia
NCI-H226 lung = system: NCI-H226 lung
NCI-H23 lung = system: NCI-H23 lung
NCI-H322M lung = system: NCI-H322M lung
NCI-H460 lung = system: NCI-H460 lung
NCI-H522 lung = system: NCI-H522 lung
NCI/ADR-RES ovarian = system: NCI/ADR-RES ovarian
OVCAR-3 ovarian = system: OVCAR-3 ovarian
OVCAR-4 ovarian = system: OVCAR-4 ovarian
OVCAR-5 ovarian = system: OVCAR-5 ovarian
OVCAR-8 ovarian = system: OVCAR-8 ovarian
PC-3 prostate = system: PC-3 prostate
RXF 393 renal = system: RXF 393 renal
SF-268 CNS = system: SF-268 CNS
SF-295 CNS = system: SF-295 CNS
SK-MEL-2 melanoma = system: SK-MEL-2 melanoma
SK-MEL-28 melanoma = system: SK-MEL-28 melanoma
SK-MEL-5 melanoma = system: SK-MEL-5 melanoma
SK-OV-3 ovarian = system: SK-OV-3 ovarian
SN12C renal = system: SN12C renal
SNB-19 CNS = system: SNB-19 CNS
SW-620 colon = system: SW-620 colon
T-47D breast = system: T-47D breast
TK-10 renal = system: TK-10 renal
U251 CNS = system: U251 CNS
UACC-257 melanoma = system: UACC-257 melanoma
UACC-62 melanoma = system: UACC-62 melanoma
UO-31 renal = system: UO-31 renal

Measured: GI50

CN(C)CCn1c(Cn2nnc3ccccc32)nc2cc(C(F)(F)F)ccc21
inactive: 786-0 renal 28.9 µM | A498 renal 24.5 µM | A549 NSCLC 83 µM | ACHN renal 50.4 µM | BT-549 breast 72.6 µM | CAKI-1 renal > 100 µM | CCRF-CEM leukemia 17.8 µM | COLO 205 colon 18.1 µM | DU-145 prostate > 100 µM | EKVX NSCLC 74.9 µM | HCC-2998 colon 15.9 µM | HCT-116 colon 36.2 µM | HCT-15 colon 45.6 µM | HL-60(TB) leukemia 19.9 µM | HOP-62 NSCLC > 100 µM | HOP-92 NSCLC 21.8 µM | HS 578T breast 62.1 µM | HT29 colon 36.7 µM | IGROV1 ovarian 41.6 µM | K-562 leukemia 25.3 µM | KM12 colon 57.7 µM | LOX IMVI melanoma 55.8 µM | M14 melanoma 17.6 µM | MALME-3M melanoma 17.1 µM | MCF7 breast 42.8 µM | MDA-MB-231 breast 49.2 µM | MDA-MB-435 = 46.2 µM | MDA-N 32 µM | MOLT-4 leukemia 20.5 µM | NCI-H226 lung 73.8 µM | NCI-H23 lung 61.4 µM | NCI-H322M lung > 100 µM | NCI-H460 lung 56.3 µM | NCI-H522 lung 30.6 µM | NCI/ADR-RES ovarian 51.8 µM | OVCAR-3 ovarian 76.6 µM | OVCAR-4 ovarian 34.8 µM | OVCAR-5 ovarian > 100 µM | OVCAR-8 ovarian 71.7 µM | PC-3 prostate 53.9 µM | RXF 393 renal 24.2 µM | SF-268 CNS 71.4 µM | SF-295 CNS 29.2 µM | SK-MEL-2 melanoma 58 µM | SK-MEL-28 melanoma 33.2 µM | SK-MEL-5 melanoma 36.2 µM | SK-OV-3 ovarian 25.8 µM | SN12C renal 34.8 µM | SNB-19 CNS > 100 µM | SW-620 colon > 100 µM | T-47D breast 21.8 µM | TK-10 renal 53.9 µM | U251 CNS 59.9 µM | UACC-257 melanoma 29.1 µM | UACC-62 melanoma 57.3 µM | UO-31 renal 45.5 µM
